Sfp inh = blocks B. subtilis Sfp PPTase activity. AID 1490. Q9F4F7. Biochemical Sfp PPTase activity, qHTS. hit rate 3.5% among 310,000. Potency, µM, for the others: max response, negative = inhibition, usual class: inhibitors; active = well fitted inhibition curve with a large enough effect; inconclusive = small, poorly fitted or top-dose-only effect, or another doubt; inactive = no such curve, though single readings can be large or run the other way;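 also: the enzyme is Sfp with the accession as filed and its product quenches rhodamine fluorescence; potency is read from the fitted curve at half-maximal effect; 0% = enzyme reaction without inhibitor and -100% = no enzyme wells; top concentration of the series not given in the record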
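With Hepes-Na pH 7.6 buffer containing 10 mM MgCl2, Sfp (15 nM) modified BHQ-2-YbbR (12.5 uM) using rhodamine-CoA (5 uM). Two reads 30 minutes apart at 525/598 nm yielded each well's rate.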
miR-21 reporter = miR-21 reporter, rising signal; Potency, µM (doses to about 38.3 µM), without a hit: at the top dose reporter change, positive = more light; HeLa miR-21 FLuc reporter, luciferase, 48 h; 340,000 tested, under 10 active; active = well fitted rising curve with a large enough effect; inconclusive = small, poorly fitted or top-dose-only effect; inactive = no such curve, though single readings can be large or run the other way;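 further: % of control where 0% means no effect; miR-21 action dims this reporter so a rising signal means less miR-21 action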
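Luminescence from a firefly luciferase reporter carrying a miR-21 binding site downstream, stably expressed under a CMV promoter in HeLa cells that make miR-21 endogenously, reports miRNA modulation after 48 h compound exposure up to approximately 40uM final.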
ALDH1A1 block = inhibitors of human aldehyde dehydrogenase 1A1 | actives 7.3% (n = 220,000) | P00352 | Purified ALDH1A1, NADH fluorescence, propionaldehyde substrate | Potency, µM (highest dose often 75.3 µM), for the others: top-dose activity, negative = inhibition, most hits filed as inhibitors; active = well fitted inhibition curve with a large enough effect, not every such curve was filed as active; inconclusive = small, poorly fitted or top-dose-only effect, or another doubt; inactive = no such curve, though single readings can be large or run the other way;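 note: potency is the fitted concentration of half-maximal effect; plate controls were no enzyme wells and a reference inhibitor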
JMJD2E inh = blocks human JMJD2E demethylase activity; Potency, µM (titrated, usually from 57.1 µM), for the others: top-dose activity change, negative = inhibition, usual class: inhibitors; actives 1.6% (n = 230,000); B2RXH2; JMJD2E catalytic domain, FDH-coupled NADH fluorescence (FDH is formaldehyde dehydrogenase);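 note: potency is the fitted concentration of half-maximal effect; 0% = wells with enzyme and -100% = buffer wells without enzyme; nearly all actives have a fitted effect of over 50% in size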
Lamin A splicing = modulators of lamin A splicing; Potency, µM (series often up to 46.1 µM), for inactives: top-dose ratio change, negative = inhibition, hits mostly inhibitors; actives 0.01% (n = 200,000); HeLa LMNA splicing GFP/RFP minigene ratio, 48 h; AID 1487; active = well fitted inhibition curve with a large enough effect in the signal ratio, with a control signal flat, not every such curve was filed as active; inconclusive = small, poorly fitted or top-dose-only effect, or effect the other way, or a change in a side signal; the % refers to the signal ratio; note: potency is the fitted concentration of half-maximal effect; % is set by controls: 0 for no effect and ±100 for the full control effect
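S3 HeLa cells stably expressing lamin A-EGFP splicing minigene plus DsRed2, 600 cells/well, 48 h compound exposure at 37C. Laser-scanning cytometry; analysed as GFP (500-530 nm)/RFP (575-640 nm) total intensity ratio; 0.5% DMSO vehicle.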
G9a inh = blocks human histone lysine methyltransferase G9a; G9a H3K9 monomethylation, AlphaScreen, 2 h; Potency, µM (doses to about 102 µM), for the others: top-dose activity, negative = inhibition, hits mostly inhibitors; actives 8.8% (n = 350,000); AID 504332; note: potency is the fitted concentration of half-maximal effect; % is set by controls: 0 for no effect and ±100 for the full control effect; nearly all actives have a fitted effect of over 75% in size
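Quantitative HTS format: methyltransferase activity on a biotin-tagged H3K9 peptide is measured by AlphaScreen, using a rabbit anti-monomethyl-H3K9 antibody with streptavidin donor and anti-IgG acceptor beads. Final levels are 20 nM enzyme, 500 nM peptide, 20 uM SAM; 2 h RT.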
Starred values were filed as active, the others as inactive; ? = inconclusive; / = not tested or not shown; [ ] = remark or other dose. A selection: hits, their analogues and other compounds. The true share with any hit is near 13%. Unless noted, calls come from the whole dose curve; as a rule, active = well fitted curve in the direction sought with a large enough effect; inconclusive = small, poorly fitted or top-dose-only effect, or another doubt; inactive = no such curve, though single readings can be large; an effect the other way counts as inactive or inconclusive.

1: CC1(C)Cc2nc3sc(C(=O)NCCCO)c(N)c3cc2CO1
2: COC(=O)c1sc2nc3c(cc2c1N)COC(C)(C)C3
3: COC(=O)c1ccccc1NC(=O)c1noc2c1CSc1ccccc1-2
4: Fc1ccc(/C=N/c2c(-c3ccc(F)cc3)nc3n2CCS3)cc1
5: COc1ccc(/C=N/c2c(-c3ccc(OC)cc3)nc3n2CCS3)cc1
6: COc1ccc2c(Cc3c4ccccc4cc4ccccc34)cncc2c1O
7: COc1ccc(N2CCN(C(=O)CSc3nc4[nH]ncc4c(=O)n3-c3cccc4ccccc34)CC2)cc1
8: COc1ccc(CNC(=O)CSc2ncn[nH]2)cc1
9: COc1ccc(-n2c(SCC(=O)N3CCCCC3)nc3ccccc3c2=O)cc1
10: O=C(CSc1ncn[nH]1)Nc1ccc(Cl)c(Cl)c1
assay / entry | 1 | 2 | 3 | 4 | 5 | 6 | 7 | 8 | 9 | 10
Sfp inh | 79.4µM* | ? | / | -13.4% | -20.3% | / | 14.6% | 7.3% | 0.0% | 17.6%
miR-21 reporter | -31.6% | -53.6% | -3.1% | -13.3% | -24.9% | / | 13.2% | -5.6% | 0.6% | 11.1%
ALDH1A1 block | / | ? | / | -6.9% | ? | -9.0%[13.5 µM] | -12.9% | 7.2% | / | 3.98µM*
JMJD2E inh | -4.1% | 1.5% | / | 5.2% | -24.7% | / | -0.7% | 5.6% | / | 0.2%
Lamin A splicing | / | -1.5% | / | 3.6% | 9.9% | / | / | 0.1% | / | ?
G9a inh | / | 50.1µM* | ? | ? | 10µM* | / | 39.8µM* | 2.82µM* | 40.9% | 44.7µM*

11: COc1ccc(CNC(=O)CSc2nc3[nH]ncc3c(=O)n2-c2ccccc2Br)cc1
12: CCOc1ccccc1Nc1sc(C(=O)c2ccc(Cl)cc2)c(N)c1C(=O)NCCc1ccccc1
13: CC(C)CO/N=C1/C[C@@H](O)[C@@H](O)[C@@H]2[C@@H]3C(=O)N(C4CCCCC4)C(=O)[C@H]3CC[C@@H]12
14: COc1cc2c(cc1OC)CN(C(=O)CSc1nc3[nH]ncc3c(=O)n1-c1ccccc1)CC2
15: COc1ccc(NC(=O)CSc2nc3[nH]ncc3c(=O)n2-c2ccccc2C)cc1OC
16: CC(=O)Nc1ccc(NC(=O)CSc2nc3[nH]ncc3c(=O)n2-c2ccccc2)cc1
17: COc1ccccc1-n1c(SCC(=O)Nc2ccc(F)cc2)nc2c(c1=O)SCC2
18: O=C(CSc1nc2[nH]ncc2c(=O)n1-c1ccccc1Br)NCc1ccccc1Cl
19: COc1ccc(CNC(=O)c2cnc3sc(N4CCCC4)nn3c2=O)cc1OC
20: CNC(=O)C1CCC(Cn2c(=O)c3sccc3n(CC(=O)NCc3cccc(OC)c3)c2=O)CC1 (configuration not stated)
assay / entry | 11 | 12 | 13 | 14 | 15 | 16 | 17 | 18 | 19 | 20
Sfp inh | 23.9% | / | 18.7% | 11.6% | 6.2% | 29.1% | -19.1% | 1.8% | / | /
miR-21 reporter | 1.2% | -0.2% | / | -11.5% | -33.6% | 0.0% | 3.9% | -7.9% | 6.6% | -1.3%
ALDH1A1 block | 15.8µM* | / | 0.9%[13.5 µM] | 28.2µM* | 28.2µM* | / | 11.2µM* | 12.6µM* | / | /
JMJD2E inh | 12.0% | / | / | -29.5% | -9.4% | / | -7.3% | -5.1% | / | /
Lamin A splicing | -23.2%[9.22 µM] | 6.9%[46 µM] | / | -7.4% | ? | / | -16.7% | / | -3.3%[46 µM] | ?
G9a inh | ? | -37.8%[59 µM] | / | ? | -3.3% | 6.6%[59 µM] | 50.1µM* | ? | 27.2%[59 µM] | 13.4%[59 µM]

Reformatted tab-delimited: entries from further up.
#	canonical_smiles	Sfp inh	miR-21 reporter	ALDH1A1 block	JMJD2E inh	Lamin A splicing	G9a inh
11	COc1ccc(CNC(=O)CSc2nc3[nH]ncc3c(=O)n2-c2ccccc2Br)cc1	23.9%	1.2%	15.8µM*	12.0%	-23.2%[9.22 µM]	?
12	CCOc1ccccc1Nc1sc(C(=O)c2ccc(Cl)cc2)c(N)c1C(=O)NCCc1ccccc1	/	-0.2%	/	/	6.9%[46 µM]	-37.8%[59 µM]
13	CC(C)CO/N=C1/C[C@@H](O)[C@@H](O)[C@@H]2[C@@H]3C(=O)N(C4CCCCC4)C(=O)[C@H]3CC[C@@H]12	18.7%	/	0.9%[13.5 µM]	/	/	/

Other results
21: CCCCn1c(N)c(N(CC(C)C)C(=O)C2CCCO2)c(=O)[nH]c1=O (configuration not stated)
22: CC(C)C[C@@]12C(=O)N(c3cccc(F)c3)C(=O)N1[C@H](c1ccc(Cl)cc1)[C@@H]1C(=O)N(C3CCCCC3)C(=O)[C@@H]12
23: c1ccc(NNC2=NCCS2)cc1
24: COc1ccc(CC(=O)NCC2CCCN(Cc3ccccc3OC)C2)cc1 (configuration not stated)
25: CC(=O)/C(N=Nc1cc(C)ccc1O)=C(\C)O
26: C=CC1C(N2CCOCC2)C(C)(C)S1(=O)=O (configuration not stated)
27: O=S1(=O)C[C@@H](N2CCOCC2)[C@H](N2CCOCC2)C1
assay / entry | 21 | 22 | 23 | 24 | 25 | 26 | 27
Sfp inh | / | / | ? | -1.1% | -2.2% | 13.2% | 70.8µM*
miR-21 reporter | / | / | -6.6% | -0.4% | -4.4% | 0.7% | 0.6%
ALDH1A1 block | / | / | / | / | 2µM* | 2.4% | ?
JMJD2E inh | / | / | / | / | -9.3% | -10.4% | 4.4%
Lamin A splicing | / | / | / | / | / | -2.8% | -9.5%
G9a inh | -4.9% | -1.1%[2.33 µM] | 50.1µM* | / | ? | 7.0% | -4.0%[59 µM]
